Results as given in US5455230A, “Delta opioid receptor antagonists and their use as analgesic agents” (Aktiebolaget Astra, priority 1993, dated 1995).

Sequences of proteins named here, by UniProt entry; tags and fusion partners are left off.
UniProt P33535, whole entry: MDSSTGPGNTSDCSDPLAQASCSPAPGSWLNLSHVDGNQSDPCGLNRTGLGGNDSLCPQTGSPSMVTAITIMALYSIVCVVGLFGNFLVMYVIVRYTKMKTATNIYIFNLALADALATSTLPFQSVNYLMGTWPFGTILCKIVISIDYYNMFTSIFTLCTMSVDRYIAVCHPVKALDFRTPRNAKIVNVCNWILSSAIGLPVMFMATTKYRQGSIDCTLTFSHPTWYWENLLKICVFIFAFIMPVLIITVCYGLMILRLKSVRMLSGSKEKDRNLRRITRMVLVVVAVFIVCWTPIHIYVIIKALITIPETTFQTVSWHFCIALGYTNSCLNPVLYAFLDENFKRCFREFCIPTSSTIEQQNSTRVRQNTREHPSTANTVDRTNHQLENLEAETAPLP

Target: T1, μ opioid receptor (Rattus norvegicus, UniProt P33535)
T1 construct: from tissue; host or cells: rat brain (without cerebellum) membranes, Sprague-Dawley
Assay: μ opioid receptor binding assay, displacement of [3H]DAMGO from rat brain membranes
Text: In the case of κ-ligands guinea pig brain homogenates were used, since the relative proportion of κ-binding sites is higher in guinea pig brain than in rat brain. The experimental procedure being used in our laboratory represents a modified version of the binding assay described by Pastemak et al. (Mol. Pharmacol. 11,340-351, (1975)). Male Sprague-Dawley rats (300-350 g) from the Canadian Breeding Laboratories were decapitated and after removal of the cerebellum the brains were homogenized in 30 volumes of ice-cold standard buffer (50 mM Tris-HCl, pH 7.7). After centrifugation at 30,000×g for 30 min at 4° C. the membranes were reconstituted in the original volume of standard buffer and incubated for 30 min at 37° C. (to release bound endogenous ligands). […] The incubation was terminated by filtration through Whatman GF/B filters under vacuum at 4° C. Following two washings with 5 ml portions of ice-cold standard buffer the filters were transferred to scintillation vials and treated with 1 ml Protosol (New England Nuclear) for 30 min prior to the addition of 0.5 ml acetic acid and 10 ml Aquasol (New England Nuclear). After shaking for 30 min the vials were counted at an efficiency of 40-45%. All experiments were performed in duplicates and repeated at least three times. […] Values of half-maximal inhibition (IC50) of specific binding were obtained graphically from semilogarithmic plots.

## Oc1ccc2c3c1O[C@H]1c4[nH]c5ccccc5c4C[C@@]4(O)[C@@H](C2)N(CC2CC2)CC[C@]314 [Naltrindole, naltrindole, reference compound]
  Ki: 12.2 ± 1.9 nM
